We go through 1 molecule from article PMC8348200, “Selective Antifungal Activity and Fungal Biofilm Inhibition of Tryptophan Center Symmetrical Short Peptide” (International Journal of Molecular Sciences, 2021).

One assay relates to E. coli 25922. The assay is classed as cell-based, Escherichia coli. The note with it: MHB, 37 °C 24 h, peptides 0.5-128 μM; lowest concentration inhibiting 95% of growth; three independent experiments. The method, then:
(§1) The peptide antimicrobial activity was determined according to the Clinical and Laboratory Standards Institute method, with modifications. Bacteria concentration was measured by ultraviolet spectrophotometer, and fungi concentration was confirmed by McMillan’s turbidimetric method, which compared the fungi solution with the standard McFarland tube in front of the horizontal line on the paper with the naked eye. Because the light has different refract in different liquids. The standard solution is composed of sulfuric acid and barium chloride, which is equivalent to 1*10^8 CFU fungi. After cultivation, the growth of fungi and bacteria was measured by TECAN automatic enzyme label instrument. Briefly, bacterial cells were cultured in MHB until logarithmic phase, yeast colonies cultured in Yeast Peptone Dextrose Agar (YPDA) were picked and diluted in RPMI 1640 growth medium buffered with morpholine propane sulfonic acid (MOPS), and then 50 μL of bacterial or fungi cell solution (0.5–1 × 10^4 CFU/mL) was added to each well of sterile 96-well plates. Each well contained 50 μL of AMPs dissolved in BSA; the final concentrations of the peptides ranged from 0.5 to 128 μM. The lowest concentration of peptide with no microbial growth being observed were measured after incubation at 37 °C for 24 h for bacteria or at 28 °C for 48 h for fungi. […]

The subject of a further assay is E. coli UB1005. It counts as cell-based, Escherichia coli. The note with it: MHB, 37 °C 24 h, peptides 0.5-128 μM; lowest concentration inhibiting 95% of growth; three independent experiments. The method, then: as §1

On to `CC[C@H](C)[C@H](NC(=O)CN)C(=O)NCC(=O)N[C@@H](C)C(=O)N[C@H](C(=O)N[C@@H](CC(C)C)C(=O)N[C@@H](CCCCN)C(=O)N[C@H](C(=O)N[C@@H](CC(C)C)C(=O)N[C@H](C(=O)N[C@H](C(=O)NCC(=O)N[C@@H](CC(C)C)C(=O)N1CCC[C@H]1C(=O)N[C@@H](C)C(=O)N[C@@H](CC(C)C)C(=O)N[C@H](C(=O)N[C@@H](CO)C(=O)N[C@@H](Cc1c[nH]c2ccccc12)C(=O)N[C@H](C(=O)N[C@@H](CCCCN)C(=O)N[C@@H](CCCNC(=N)N)C(=O)N[C@@H](CCCCN)C(=O)N[C@@H](CCCNC(=N)N)C(=O)N[C@@H](CCC(N)=O)C(=O)N[C@@H](CCC(N)=O)C(N)=O)[C@@H](C)CC)[C@@H](C)CC)[C@@H](C)O)[C@@H](C)O)C(C)C)C(C)C` [Melittin, reference compound], for which the “MICs, E. coli 25922” value in the assay on E. coli 25922 was 2 µM. In addition, in the assay with E. coli UB1005, the “MICs, E. coli UB1005” value came out at 2 µM.
